Laboratory results from US20220371988A1, “TRPV1 AGONIST AND PREPARATION METHOD THEREFOR AND USE THEREOF” (NANJING DELOVA BIOTECH CO. LTD., priority 2019, published 2022).
In brackets after ≈: the same amount, converted by molar mass.

How the values were obtained:
[1] = Determination of solubility in water; conditions: 10 mg, water added in 0.1 mL portions, sonicated 5 min
[2] = system: nasal mucosa and perinasal skin of the rats; assay: Irritation test (2): nasal administration to rats; conditions: for Nasal scratching: times within 0-10 min / Nasal scratching: times within 10-30 min / Sneezing: times within 0-30 min / Sneezing: times within 10-30 min / Nasal cavity and nasal periphery: redness and swelling score: n = 4, X ± SD, 10 μL nasal; for Eye closure symptom / Hypokinesia symptom: rats, 10 μL into left nostril, observed 30 min, A-17 16.67 mg/mL, parent 10 mg/mL (equimolar); for Nasal cavity and nasal periphery: redness and swelling score: score 0-3
[3] = Clinical compatibility stability; conditions: for Character: 0-8 h
[4] = system: rats as models of pain after incision; assay: Thermal hyperalgesia test (Hargreaves method) in rats as models of pain after incision; format: in vivo, SD rat; conditions: for Time after surgery at which thermal withdrawal latency (TWL) was increased vs blank preparation group (P<0.05): injection at incision site
[5] = system: rats as models of pain after incision; assay: Mechanical allodynia test (Von Frey method) in rats as models of pain after incision; format: in vivo, SD rat
[6] = 0.9% sodium chloride injection (25° C.), 0 h
[7] = 0.9% sodium chloride injection (25° C.), 1 h
[8] = 0.9% sodium chloride injection (25° C.), 2 h
[9] = 0.9% sodium chloride injection (25° C.), 4 h
[10] = 0.9% sodium chloride injection (25° C.), 6 h
[11] = 0.9% sodium chloride injection (25° C.), 8 h
[12] = Glucose injection (25° C.), 0 h
[13] = Glucose injection (25° C.), 1 h
[14] = Glucose injection (25° C.), 2 h
[15] = Glucose injection (25° C.), 4 h
[16] = Glucose injection (25° C.), 6 h
[17] = Glucose injection (25° C.), 8 h
[18] = HD group: A-17 0.6 mg/animal, parent 0.36 mg/animal
[19] = LD group: A-17 0.15 mg/animal, parent 0.09 mg/animal

SMILES: COc1cc(CNC(=O)CCCC/C=C/C(C)C)ccc1OC(=O)CN(C)C
- Solubility [1]: 70 mg/mL (≈ 179 mM)

SMILES: COc1cc(CNC(=O)CCCC/C=C/C(C)C)ccc1O [trans-8-methyl-N-vanillyl-6-nonenamide]
- Nasal scratching: times within 0-10 min [2]: 6.50 ± 4.36
- Nasal scratching: times within 10-30 min [2]: 19.25 ± 9.88
- Sneezing: times within 0-30 min [2]: 8.75 ± 44.65
- Sneezing: times within 10-30 min [2]: 7.25 ± 9.88
- Eye closure symptom [2]: eye closure symptom that lasts for about 1.4 min was observed in 1 rat
- Hypokinesia symptom [2]: Hypokinesia symptom that lasts for 3-12 min was observed in 3 of the 4 rats
- Nasal cavity and nasal periphery: redness and swelling score [2]: 2.25 ± 0.50

SMILES: CCN(CC)CC(=O)Oc1ccc(CNC(=O)CCCC/C=C/C(C)C)cc1OC
- Nasal scratching: times within 0-10 min [2]: 13.50 ± 3.87
- Nasal scratching: times within 10-30 min [2]: 12.50 ± 7.19
- Sneezing: times within 0-30 min [2]: 7.50 ± 4.20
- Sneezing: times within 10-30 min [2]: 1.75 ± 0.96
- Eye closure symptom [2]: no eye closure or hypokinesia was observed
- Hypokinesia symptom [2]: no eye closure or hypokinesia was observed
- Nasal cavity and nasal periphery: redness and swelling score [2]: 0.75 ± 0.50
- Related substances: Capsaicine [3, 6]: 2.57
- Related substances: Total impurities [3, 6]: 6.25
- pH [3, 6]: 3.39
- Character ([3]; 0.9% sodium chloride injection (25° C.)): Clear liquid
- Related substances: Capsaicine [3, 7]: 3.22
- Related substances: Total impurities [3, 7]: 6.9
- pH [3, 7]: 3.38
- Related substances: Capsaicine [3, 8]: 3.84
- Related substances: Total impurities [3, 8]: 7.52
- pH [3, 8]: 3.37
- Related substances: Capsaicine [3, 9]: 4.95
- Related substances: Total impurities [3, 9]: 8.59
- pH [3, 9]: 3.34
- Related substances: Capsaicine [3, 10]: 6.1
- Related substances: Total impurities [3, 10]: 9.77
- pH [3, 10]: 3.31
- Related substances: Capsaicine [3, 11]: 7.22
- Related substances: Total impurities [3, 11]: 10.89
- Related substances: Capsaicine [3, 12]: 2.69
- Related substances: Total impurities [3, 12]: 6.46
- pH [3, 12]: 3.30
- Character ([3]; Glucose injection (25° C.)): Clear liquid
- Related substances: Capsaicine [3, 13]: 3.64
- Related substances: Total impurities [3, 13]: 7.41
- pH [3, 13]: 3.31
- Related substances: Capsaicine [3, 14]: 4.24
- Related substances: Total impurities [3, 14]: 8.00
- pH [3, 14]: 3.28
- Related substances: Capsaicine [3, 15]: 5.62
- Related substances: Total impurities [3, 15]: 9.38
- pH [3, 15]: 3.26
- Related substances: Capsaicine [3, 16]: 6.94
- Related substances: Total impurities [3, 16]: 10.7
- pH [3, 16]: 3.21
- Related substances: Capsaicine [3, 17]: 8.32
- Related substances: Total impurities [3, 17]: 12.02
- Effect on overall thermal hyperalgesia (AUC of time-TWL curve) within 7 days vs blank preparation ([4]; HD group: A-17 0.6 mg/animal (P<0.001), parent 0.36 mg/animal (P<0.01)): can effectively relieve the overall thermal hyperalgesia
- Duration of analgesic effect on thermal hyperalgesia [4, 18]: 4 days
- Time after surgery at which thermal withdrawal latency (TWL) was increased vs blank preparation group (P<0.05) [4, 18]: 1 to 96 h
- Duration of analgesic effect on thermal hyperalgesia ([4]; LD group: A-17 0.15 mg/animal): 1 days
- Effect on overall thermal hyperalgesia (AUC of time-TWL curve) within 7 days vs blank preparation [4, 19]: no significant effect
- Time after surgery at which thermal withdrawal latency (TWL) was increased vs blank preparation group (P<0.05) [4, 19]: 1 to 24 h
- Duration of analgesic effect on thermal hyperalgesia ([4]; MD group: A-17 0.3 mg/animal): 3 days
- Effect on overall thermal hyperalgesia (AUC of time-TWL curve) within 7 days vs blank preparation ([4]; MD group: A-17 0.3 mg/animal (P<0.001)): can effectively relieve the overall thermal hyperalgesia
- Duration of analgesic effect on mechanical allodynia ([5]; HD group: A-17 0.6 mg/animal): 2 days
- Time after surgery at which paw withdrawal threshold (PWT) was increased vs blank preparation group (P<0.05) [5, 19]: 1 h
- Duration of analgesic effect on mechanical allodynia ([5]; MD group: A-17 0.3 mg/animal, starts at 24 h after surgery): 1 days
- Solubility ([1]; hydrochloride): 244 mg/mL (≈ 583 mM)
- Solubility ([1]; oxalate): 175 mg/mL (≈ 418 mM)
